{"source": "patent US6399325B1", "about": "“DNA encoding a galanin receptor” (priority 1994, dated 2002)", "key": {"[1]": {"target": "T1, galanin receptor (MIN6 cell membrane fractions) (Mus musculus, UniProt P56479)", "T1 construct": "endogenous in cells; host or cells: MIN6 mouse pancreatic beta-cell line, membrane fraction", "T1 sequence (P56479 1-348)": "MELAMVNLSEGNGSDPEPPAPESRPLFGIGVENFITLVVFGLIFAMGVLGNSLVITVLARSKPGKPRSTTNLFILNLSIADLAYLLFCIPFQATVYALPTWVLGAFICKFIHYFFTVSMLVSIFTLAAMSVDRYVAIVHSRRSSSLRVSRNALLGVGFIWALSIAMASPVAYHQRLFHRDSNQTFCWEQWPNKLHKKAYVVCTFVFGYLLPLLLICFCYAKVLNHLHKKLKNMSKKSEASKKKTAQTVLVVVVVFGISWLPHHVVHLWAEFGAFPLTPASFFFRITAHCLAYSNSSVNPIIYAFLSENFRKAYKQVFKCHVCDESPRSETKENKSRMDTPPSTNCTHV", "test": "Galanin receptor binding experiment using MIN6 cell membrane fractions", "details": "read-out: IC50 (concentration giving 50% of PMB), [125I] porcine galanin, 25° C. for 75 minutes"}, "mouse galanin receptor": {"target": "T2, mouse galanin receptor (Mus musculus, UniProt P56479)", "T2 construct": "expressed in transfected cells; host or cells: CHO dhfr- cells (CHO-MGR20)", "T2 sequence (P56479 1-348)": "T1 sequence (P56479 1-348)", "test": "Competitive binding of porcine [125I] galanin to mouse galanin receptor (CHO membrane fractions)"}}}
{"substance": "Rat Galanin", "values": [{"measurement": "IC50", "setting": "[1]", "value": 0.13, "unit": "nM"}, {"measurement": "Ki", "setting": "mouse galanin receptor; inhibition of porcine [125I] galanin binding, CHO membrane fractions with mouse galanin receptor", "value": "0.069 ± 0.002", "unit": "nM"}, {"measurement": "IC50", "setting": "mouse galanin receptor; porcine [125I] galanin 100 pM, membrane fractions 1 μg protein, 75 min at 25° C., mean±S.E.M.", "value": "0.25 ± 0.01", "unit": "nM"}]}
